Target: Delta-type opioid receptor (Mus musculus, UniProt P32300)
Test: Inhibition of delta-selective antagonist binding to opioid receptor of mouse vas dferens
How it was run: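 Mouse vas deferens at 500 mg tension in Mg-free Krebs, 37 °C, 95% O2/5% CO2. Field-stimulated with 2-ms supramaximal pulses; isometric contractions recorded. Cumulative concentration-response. At least 2 assays in duplicate.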

Protein sequences, listed by entry. Tags and fused reporters are not part of them.
UniProt P32300, whole entry: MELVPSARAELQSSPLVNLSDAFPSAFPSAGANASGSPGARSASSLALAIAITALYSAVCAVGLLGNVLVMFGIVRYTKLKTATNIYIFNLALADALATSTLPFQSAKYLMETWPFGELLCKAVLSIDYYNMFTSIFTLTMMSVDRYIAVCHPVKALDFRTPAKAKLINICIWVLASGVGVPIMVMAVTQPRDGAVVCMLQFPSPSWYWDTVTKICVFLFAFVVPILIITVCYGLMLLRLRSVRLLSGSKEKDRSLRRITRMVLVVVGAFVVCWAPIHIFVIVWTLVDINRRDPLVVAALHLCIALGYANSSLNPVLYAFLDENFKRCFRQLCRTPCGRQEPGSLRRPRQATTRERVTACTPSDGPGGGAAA

CC[C@H](C)[C@H](NC(=O)[C@H](CCCNC(=N)N)NC(=O)[C@H](CCCNC(=N)N)NC(=O)[C@H](CC(C)C)NC(=O)[C@H](Cc1ccccc1)NC(=O)CNC(=O)CNC(=O)[C@@H](N)Cc1ccc(O)cc1)C(=O)N[C@@H](CCCNC(=N)N)C(=O)N1CCC[C@H]1C(=O)N[C@@H](CCCCN)C(=O)N[C@@H](CC(C)C)C(=O)N[C@@H](CCCCN)C(=O)N[C@@H](Cc1c[nH]c2ccccc12)C(=O)N[C@@H](CC(=O)O)C(=O)N[C@@H](CC(N)=O)C(=O)N[C@@H](CCC(N)=O)C(=O)O [DYNORPHIN A (1-17)] gave an IC50 of 39.7 nM.
